# Laboratory results: patent US11053226B2, “KRAS G12C inhibitors and methods of using the same” (Amgen Inc., priority 2018, dated 2021)
# Chains of the proteins cited; added tags and fusions are not shown. Lines headed by an entry give the natural chain unless they say otherwise; changes in a name come on top.
# UniProt P01116: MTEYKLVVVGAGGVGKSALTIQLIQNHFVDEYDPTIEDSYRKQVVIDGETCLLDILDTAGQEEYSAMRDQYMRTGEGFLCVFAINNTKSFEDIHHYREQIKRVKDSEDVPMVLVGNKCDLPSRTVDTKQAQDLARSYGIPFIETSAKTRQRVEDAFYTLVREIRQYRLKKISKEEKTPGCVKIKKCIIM
# Like-named read-outs stand apart in the source and are kept apart here.
# Target: GDP-bound KRAS protein (aa 1-169), containing both G12C and C118A amino acid substitutions (Homo sapiens (Human), UniProt P01116, C118A/G12C)
# Test: Coupled Nucleotide Exchange Assay
# Type: biochemical
# Description: For compounds in Table 9, the following assay conditions were employed:
# Coupled Nucleotide Exchange Assay:
# The assay plates were then read on a PerkinElmer EnVision Multilabel Reader, using AlphaScreen® technology, and data were analyzed using a 4-parameter logistic model to calculate IC50 values.
# [1] = read-out: Coupled Exchange IC50 (2 h), 2 h compound pre-incubation
# [2] = read-out: Coupled Exchange IC50 (20 h), 20 h compound pre-incubation
SMILES,IC50 [1] [nM],IC50 [2] [nM]
C=CC(=O)N1CC(NC(=O)Cn2cc(C(=O)N3CCc4cc(Br)ccc4C3)c3cc(Br)ccc32)C1 [Example 106],630,180
C=CC(=O)N1CC(NC(=O)Cn2cc(C(=O)N3CCc4cc(Br)ccc4C3)c3cc(Br)ccc32)C1 [Example 104],2320,660
